# Measured values: US8440810B2, “Riboswitches, methods for their use, and compositions for use with riboswitches” (Yale University, priority 2002, dated 2013)
# System: 251 yitJ RNA
# Type: binding, B. subtilis
smiles,measurement,value
CSCC[C@H](N)C(=O)O [methionine],structural modulation of the RNA,no structural modulation was evident
